Test system: adult patients with uncontrolled gout
Settings: MTX Run-in, mITT N = 14

In the case of `CN(Cc1cnc2nc(N)nc(N)c2n1)c1ccc(C(=O)N[C@@H](CCC(=O)O)C(=O)O)cc1` [Methotrexate], the “Infections And Infestations, Incidence Rate” value is reported as 2.0 Events/PY of MTX and the “Infections And Infestations, Total Events” value is reported as 2.

Reference: patent US20230301999A1, “METHODS OF TREATING GOUT” (Horizon Therapeutics USA, Inc., priority 2020, published 2023)
